Values quoted from earlier work as cited in patent US4859671A, “2-substituted 1,2-benzisothiazol-3(2H)-one 1,1-dioxide useful as an anxiolytic agent” (American Home Products Corporation, priority 1988, dated 1989).

System: 5-HT1A receptors
Conditions: compared with buspirone; cited from earlier work

With CC1(C)CC(=O)N(CCCCN2CCN(c3ncccn3)CC2)C(=O)C1 [Gepirone, 4,4-dimethyl-1-[4-[4-(2-pyrimidinyl)-1-piperazinyl]butyl]-2,6-piperidinedione] as the compound, how does the “selectivity for 5-HT1A receptors relative to buspirone (in words)” value read?
The value was “higher degree of selectivity for 5-HT1A receptors than buspirone”.
